The results in this text go back to ChEMBL document CHEMBL1135700, “Design, synthesis and activity of ascorbic acid prodrugs of nipecotic, kynurenic and diclophenamic acids, liable to increase neurotropic activity” (2002).

This data set has as its system O=C1O[C@H]([C@@H](O)CO)C(O)=C1O. Briefly: Uptake of ([14C]- AA) mediated by sodium-dependent ascorbate transporters, SVCT2 measured as Maximum velocity (Vmax). Format: functional.

For the substance “Solute carrier family 23 member 2 (Homo sapiens), Q9UGH3”, the Vmax (nM hr-1 (10e6*cells)-1) came out at 4.3.
